# Experimental data from patent publication US7008636B2, “2,3,5-substituted biphenyls useful in the treatment of insulin resistance and hyperglycemia” (Wyeth, priority 1998, dated 2006).
# Amino acid sequences for entries named in this document (tags omitted). A change or cut given only in a name is not applied to a line headed by its entry.
# UniProt P18031: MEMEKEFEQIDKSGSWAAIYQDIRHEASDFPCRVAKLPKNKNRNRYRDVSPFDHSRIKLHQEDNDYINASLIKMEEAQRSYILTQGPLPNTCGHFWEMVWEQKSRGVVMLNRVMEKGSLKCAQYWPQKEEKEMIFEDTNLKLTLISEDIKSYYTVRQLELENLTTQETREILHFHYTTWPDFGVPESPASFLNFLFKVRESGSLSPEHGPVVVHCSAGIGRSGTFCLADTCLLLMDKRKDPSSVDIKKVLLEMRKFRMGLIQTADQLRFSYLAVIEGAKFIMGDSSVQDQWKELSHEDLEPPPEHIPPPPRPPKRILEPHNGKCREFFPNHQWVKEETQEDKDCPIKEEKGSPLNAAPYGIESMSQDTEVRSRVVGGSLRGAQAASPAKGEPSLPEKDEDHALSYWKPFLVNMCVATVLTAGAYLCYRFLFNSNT
# Target: recombinant, human protein tyrosine phosphatase (PTP) 1B (hPTP1B) (Homo sapiens, UniProt P18031)
# Test: Inhibition of tri-phosphorylated insulin receptor dodecaphosphopeptide dephosphorylation by hPTP1B
# Type: biochemical
# Details: 50 μM IR triphosphopeptide substrate, 5 min preincubation and 5 min reaction at 37° C., malachite green-ammonium molybdate phosphate detection
substance,measurement,value
"2-Hydroxy-4-[5′-(8-phenyl-octylcarbamoyl)-3,3″-bis-trifluoromethyl-[1,1′:3′1″]terphenyl-2′yloxymethyl]-benzoic acid",IC50,0.125 µM
Phenylarsine oxide,IC50,39.7 µM
